Assay results taken from article PMC7948460, “Volatile allosteric antagonists of mosquito odorant receptors inhibit human-host attraction” (The Journal of Biological Chemistry, 2020).
Read-outs that look alike come from different tables or passages of the source.

Amino acid sequences for entries named in this document (tags omitted). A change or cut given only in a name is not applied to a line headed by its entry.
UniProt Q7QCC7: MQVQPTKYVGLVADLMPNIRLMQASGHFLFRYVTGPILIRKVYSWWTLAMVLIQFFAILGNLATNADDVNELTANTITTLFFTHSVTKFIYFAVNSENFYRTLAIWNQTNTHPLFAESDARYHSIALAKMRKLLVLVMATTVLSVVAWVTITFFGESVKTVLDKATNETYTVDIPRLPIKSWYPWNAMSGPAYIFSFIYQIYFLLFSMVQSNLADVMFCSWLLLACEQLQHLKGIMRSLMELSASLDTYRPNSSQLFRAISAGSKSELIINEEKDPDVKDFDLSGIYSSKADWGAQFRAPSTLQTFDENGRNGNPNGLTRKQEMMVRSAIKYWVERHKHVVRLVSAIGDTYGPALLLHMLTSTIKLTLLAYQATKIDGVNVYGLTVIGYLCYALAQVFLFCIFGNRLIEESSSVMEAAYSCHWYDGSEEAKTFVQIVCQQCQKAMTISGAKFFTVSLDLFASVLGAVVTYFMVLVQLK

Experiments:
AgamORco [1] = target: T1, AgamORco (Anopheles gambiae, UniProt Q7QCC7); experiment: Insect cell-based (Bm5) AgamORco/Photina Ca2+ influx luminescence assay; conditions: for OA-induced ORco response in the presence of the antagonist, relative to maximal (100%) response without antagonist: 100 μM antagonist; for Type of antagonism relative to ORcoRAM2 binding site: antagonist dose-response at 50 and 150 μM OA; for pIC50, inhibition of OA-dependent AgamORco channel activity: 100 μM ORcoRAM2 (OA); for IC50: read-out: IC50 in binding competition assay
AgamORco [2] = target: T1, AgamORco; conditions: previously characterized ORco antagonist, cited from earlier work
[3] = single compound 25 μM + 100 μM OA
[4] = single compound 50 μM + 100 μM OA
[5] = single compound 75 μM + 100 μM OA

Compound | OA-induced ORco response in the presence of the antagonist, relative to maximal (100%) response without antagonist (AgamORco [1]) [%] | Type of antagonism relative to ORcoRAM2 binding site (AgamORco [1]) | % Inhibition (±SD) of OA-induced ORco luminescence response (AgamORco [1]; [3]) [%] | % Inhibition (±SD) of OA-induced ORco luminescence response (AgamORco [1]; [4]) [%] | % Inhibition (±SD) of OA-induced ORco luminescence response (AgamORco [1]; [5]) [%] | pIC50 in binding competition assay (AgamORco [1]; 50 μM ORcoRAM2 (OA)) | pIC50, inhibition of OA-dependent AgamORco channel activity (AgamORco [1]) | pIC50 in binding competition assay (AgamORco [1]; 150 μM ORcoRAM2 (OA)) | IC50 (AgamORco [1]; 50 μM ORcoRAM2 (OA)) [µM] | IC50 (AgamORco [1]; 150 μM ORcoRAM2 (OA)) [µM] | pIC50, inhibition of AgamORco function (AgamORco [2]) | IC50 (AgamORco [2]; read-out: IC50, inhibition of AgamORco function) [µM]
Cc1ccc(C(C)C)cc1O [CRV, Carvacrol] | 45 | non-competitive (allosteric) antagonist | 31.75 ± 1.21 | 43.50 ± 2.51 | 47.20 ± 1.82 |  |  |  |  |  |  | 
Cumin alcohol | 52 | allosteric inhibitor | 22.08 ± 0.78 | 27.46 ± 2.90 | 39.41 ± 3.09 | 4.072 ± 0.2314 | 4.082 ± 0.2848 | 4.109 ± 0.1781 | 84.7 | 77.8 |  | 
Isopropyl cinnamate |  |  |  |  |  |  |  |  |  |  | 4.379 ± 0.061 | 41.7
C=CC(C)(CCC=C(C)C)OC(C)=O (stereo not drawn) [LA, Linalyl acetate] |  |  |  |  |  |  | 4.169 ± 0.1595 |  |  |  |  | 
